Biological target: Adenosine A1 receptor (Homo sapiens, UniProt P30542)
Assay: A1 antagonist function (no method described)
Format: cell-based

Chains of the proteins cited; added tags and fusions are not shown.
UniProt P30542, whole entry: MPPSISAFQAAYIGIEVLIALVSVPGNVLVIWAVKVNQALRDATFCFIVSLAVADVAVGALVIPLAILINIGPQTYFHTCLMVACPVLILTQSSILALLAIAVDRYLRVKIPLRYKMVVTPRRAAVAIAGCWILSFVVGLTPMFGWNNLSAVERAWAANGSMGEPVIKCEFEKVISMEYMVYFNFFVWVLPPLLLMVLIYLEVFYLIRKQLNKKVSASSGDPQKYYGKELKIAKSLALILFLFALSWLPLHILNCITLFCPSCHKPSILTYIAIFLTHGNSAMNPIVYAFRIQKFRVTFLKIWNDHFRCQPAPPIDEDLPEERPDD

Ki: 3.19 nM
Structure (SMILES): Nc1nc(-c2cccs2)c2c(n1)-c1ccccc1C2=O [Compound 14, 2-amino-4-thiophen-2-yl-indeno[1,2-d]pyrimidin-5-one]

— patent publication EP1673354B1, “ARYLINDENOPYRIDINES AND ARYLINDENOPYRIMIDINES AND THEIR USE AS ADENOSINE A2A RECEPTOR ANTAGONISTS” (Ortho-McNeil Pharmaceutical, Inc., priority 2003, dated 2005)
